Measured values reported in patent publication US20090062277A1, “PHOSPHODIESTERASE 10 INHIBITORS” (priority 2007, published 2009).

Sequences of proteins named here, by UniProt entry; tags and fusion partners are left off. Residues count along the entry.
UniProt Q8CA95, 446-763 limits assumed: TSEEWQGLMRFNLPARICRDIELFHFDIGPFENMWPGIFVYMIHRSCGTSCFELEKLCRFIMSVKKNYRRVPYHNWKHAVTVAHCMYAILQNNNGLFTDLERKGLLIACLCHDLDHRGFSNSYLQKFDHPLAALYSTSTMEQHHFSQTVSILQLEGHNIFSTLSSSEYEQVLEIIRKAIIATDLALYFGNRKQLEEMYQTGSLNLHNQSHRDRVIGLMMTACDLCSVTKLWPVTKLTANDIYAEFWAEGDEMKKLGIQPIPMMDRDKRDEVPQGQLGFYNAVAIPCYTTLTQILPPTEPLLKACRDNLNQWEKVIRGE

Target: mPDE10A7 (Mus musculus, UniProt Q8CA95)
Assay: mPDE10A7 enzyme inhibition (IMAP fluorescence polarization)
Details: fluorescein labeled cAMP or cGMP substrate, 30 min at room temperature

Structure (SMILES)	IC50
COc1cc2nncc(-c3ccc(N4CCC(NC(=O)C(C)(C)C)CC4)nc3)c2cc1OC	140 nM
CCOc1cc2c(-c3cnc(N4CCC(C(C)(C)O)CC4)c(C)c3)cnnc2cc1C	60.6 nM
